{"source": "patent US7381400B2", "about": "“Injection of a radioactive dye for sentinel lymph node identification” (Board of Supervisors of Louisiana State University And …, priority 2004, dated 2008)", "key": {"[1]": {"conditions": "breast cancer patients, expected"}, "[2]": {"conditions": "mini-pigs, subcutaneous injection of the anterior thigh, expected"}, "[3]": {"conditions": "rabbits; for radioactivity measured in the right paw (the site of injection), mean level: FIG. 1"}}, "note": "Where two headings read alike, the source gives them in different places."}
{"substance": "^125I-3,7-bisdimethylaminophenazathionine [^125I-methylene blue]", "values": [{"measurement": "travel to the lymph nodes compared with ^99mTc sulfur colloid", "setting": "[1]", "result": "faster"}, {"measurement": "time for radioactivity to reach the node", "setting": "[2]", "result": "≤ 15", "unit": "min"}, {"measurement": "transit to regional lymph nodes and systemic biodistribution", "setting": "[3]", "result": "rapid transit of ^125I-methylene blue to regional lymph nodes with limited systemic biodistribution"}, {"measurement": "radioactivity measured in the right paw (the site of injection), mean level", "setting": "[3]; 1 ml 1 mCi/ml in right hind paw, 15 min", "result": 1.6, "unit": "million"}, {"measurement": "radioactivity in the lymph node, in vivo and in vitro readings, highest readings (average)", "setting": "[3]; 15 min post-injection, FIG. 2 and FIG. 3", "result": 1, "unit": "million"}, {"measurement": "radioactivity measured in the right paw (the site of injection), mean level", "setting": "[3]; 48 hr", "result": 1.4, "unit": "million"}, {"measurement": "right groin radioactivity levels", "setting": "[3]; 48 hr, FIG. 8", "result": "60,000 CPM"}, {"measurement": "right groin radioactivity levels, course", "setting": "[3]; FIG. 8", "result": "increased over time until 8 hr"}, {"measurement": "background radioactivity levels in the neck", "setting": "[3]; all time periods to 48 hr, FIG. 4", "result": "less than 100,000 CPM"}, {"measurement": "radioactivity in the left paw", "setting": "[3]; all time periods to 48 hr, FIG. 5", "result": "less than 100,000 CPM"}, {"measurement": "selective uptake in stomach, spleen, liver, ovary or testes, heart, lungs, or thyroid", "setting": "[3]; biodistribution", "result": "no selective uptake"}, {"measurement": "radioactivity in blood", "setting": "[3]; blood (0.1 ml), all time periods to 48 hr, FIG. 6", "result": "less than 100,000 CPM"}, {"measurement": "radioactivity in the lymph node, in vivo and in vitro readings", "setting": "[3]; declined over the 48 hr", "result": "about 100,000 CPM"}, {"measurement": "radioactivity in the kidney", "setting": "[3]; from 2 hr to 8 hr, then a fall at 24 hr and 48 hr, FIG. 7", "result": "gradual increase"}, {"measurement": "time for radioactivity to reach the node", "setting": "[3]; popliteal nodes", "result": "≤ 15", "unit": "min"}]}
